Source: PubChem BioAssay AID485317 (Broad Institute, 2010)
The list shows a part of the results, in another mix than the full data. The source made the active and inactive calls.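 How the source made its calls: active means mean replicate inhibition above about 79%, with every replicate also reaching it (limit read from the data); inconclusive means only one of the two criteria met; inactive means mean below limit and not every replicate reaching it.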

The chains behind the UniProt entries cited, without tags or fusion partners.
UniProt P55789, whole entry: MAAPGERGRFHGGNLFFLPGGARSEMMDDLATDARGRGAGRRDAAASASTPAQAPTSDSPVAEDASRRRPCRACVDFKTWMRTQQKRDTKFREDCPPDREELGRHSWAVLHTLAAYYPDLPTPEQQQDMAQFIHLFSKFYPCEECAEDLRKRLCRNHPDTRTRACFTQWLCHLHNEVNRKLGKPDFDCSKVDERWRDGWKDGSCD

The compounds below were run against FAD-linked sulfhydryl oxidase ALR (Homo sapiens) (UniProt P55789) (assay: inhibitors of human ALR sulfhydryl oxidase, primary screen, biochemical, H2O2 detection, HRP-luminol luminescence, single point (AID 485317)). Details: purified ALR, DTT oxidation, hits give high values, concentration not given here.

SMILES | inhibition
O=C(OC1CN2CCC1CC2)C1c2ccccc2C=Cc2ccccc21 (configuration not stated) | inactive: -20.5%
CCc1cc(C(=O)NCC2(N3CCCCC3)CCCCC2)sc1C | inactive: -12.9%
CCOC(=O)N1CCC(Nc2ccc(C)cc2)CC1 | active: 97.7%
N/C(=N\O)c1c(N)no[n+]1[O-] | inactive: 2.38%
COc1ccc(C(=O)NCC2(N3CCOCC3)CCCCC2)cc1OC | inactive: -12.2%
O=C(NCC1(N2CCOCC2)CCCCC1)c1cc(Br)ccc1Cl | inactive: -3.17%
CN(C)C1(CNC(=O)c2cccc(C#N)c2)CCCCC1 | inactive: 16.4%
c1ccc(CN2CCC(Nc3ccccc3)CC2)cc1 | active: 89.6%
CCCN1CCC(Nc2cc(OC)cc(OC)c2)CC1 | inactive: 67.6%
N#Cc1ccc(C(=O)NCC2(N3CCCCC3)CCCCC2)cc1 | inactive: -0.87%
CN(C)c1ccc(C(=O)NCC2(N3CCCCC3)CCCCC2)cc1 | active: 93.5%
Cc1ccc(C(=O)NCC2(N3CCCCC3)CCCCC2)o1 | inactive: -2.46%
Fc1ccccc1NC1CCN(Cc2ccccc2)CC1 | inactive: 17.1%
CN1CCC(Nc2ccc(Cl)cc2)CC1 | inactive: 59%
CCCOc1ccc(C)cc1CN(CCCl)CCCl | inactive: 35.8%
COc1cc(OC)cc(C(=O)NCC2(N3CCOCC3)CCCCC2)c1 | inactive: 7.18%
COc1cccc(C(=O)N(c2cc(C)cc(C)c2)C2CCN(C(=O)OC(C)(C)C)CC2)c1 | inactive: -14.2%
CCC(CO)(C(=O)OC1CN2CCC1CC2)c1ccccc1 (configuration not stated) | inactive: 2.95%
CC(C)(C)OC(=O)N1CCC(Nc2ccccc2)CC1 | inactive: 52.4%

SMILES | inhibition
CCCOc1ccc(C(=O)NCC2(N(C)C)CCCCC2)cc1 | inactive: -24.4%
CCOc1ncccc1C(=O)NCC1(N2CCOCC2)CCCCC1 | inactive: -16.7%
CN1CCC(Nc2ccc(F)c(Cl)c2)CC1 | inactive: 35.4%
O=C(OC1CN2CCC1CC2)C1c2ccccc2Oc2ccccc21 (configuration not stated) | inactive: -30.8%
O=C(NCC1(N2CCCCC2)CCCCC1)c1ccc(Cl)s1 | inactive: -1.84%
N#CC1(Nc2ccccc2)CCN(Cc2ccccc2)CC1 | inactive: -3.67%
COc1ccc(Cl)cc1C(=O)NCC1(N2CCOCC2)CCCCC1 | inactive: -3.59%
CCOC(=O)N1CCC(Nc2ccc(OC)cc2)CC1 | active: 98.3%
O=C(NCC1(N2CCCCC2)CCCCC1)c1ccc(Cl)nc1 | inactive: -7.41%
Cc1cc(C)cc(N(C(=O)c2ccccc2)C2CCN(C(=O)OC(C)(C)C)CC2)c1 | inactive: -7.48%
O=C(NCC1(N2CCOCC2)CCCCC1)c1cc2ccccc2o1 | inactive: -8.63%
CSc1ccccc1C(=O)NCC1(N2CCCCC2)CCCCC1 | inactive: -15.4%
COc1ccc(C(=O)NCC2(N3CCCCC3)CCCCC2)cc1 | inactive: 3.93%
COc1ccc(C(=O)NCC2(N3CCCCC3)CCCCC2)c(OC)c1OC | inactive: -5.6%
CC(C)(C)OC(=O)N1CCC(N(C(=O)c2ccccc2)c2ccc(F)cc2)CC1 | inactive: -5.78%
O=C(NCC1(N2CCCCC2)CCCCC1)c1ccc(=O)[nH]c1 | inactive: -4.86%
O=C(NCC1(N2CCCCC2)CCCCC1)c1cccs1 | inactive: -0.742%
COc1cc(C(=O)NCC2(N(C)C)CCCCC2)ccc1OC(F)F | inactive: 0.793%
CCOC(=O)N1CCC(Nc2cccc(C)c2)CC1 | active: 98.4%

SMILES | inhibition
Cc1ccc(OCC(C)C)c(CN(CCCl)CCCl)c1 | inactive: 11.8%
O=C(NCC1(N2CCCCC2)CCCCC1)c1ccc(F)cc1 | inactive: -8.98%
COc1ccc(NC2CCN(CCc3ccccc3)CC2)c(OC)c1 | active: 99.3%
CCOC(=O)N1CCC(Nc2ccc(F)cc2)CC1 | active: 99.3%
CCOc1ccc(C)cc1CN(CCCl)CCCl | inactive: 26.4%
COc1cc(C(=O)NCC2(N3CCCCC3)CCCCC2)ccc1OC(F)F | inactive: -2.32%
O=C(NCC1(N2CCOCC2)CCCCC1)c1cc(=O)[nH]c2ccccc12 | inactive: -8.66%
CN1CCN(CCOC(=O)C(O)(c2ccccc2)c2ccccc2)CC1 | inactive: -9.24%
COc1ccc(NC2CCN(C(=O)OC(C)(C)C)CC2)cc1 | active: 86.1%
O=C(NCC1(N2CCCCC2)CCCCC1)c1cccc(C(F)(F)F)c1 | inactive: 1.07%
CCN1CCC(Nc2ccc(Cl)cc2)CC1 | inactive: 48%
N#CC1(Nc2ccccc2)CCN(CCc2ccccc2)CC1 | inactive: -33.5%
O=C(NCC1(N2CCCCC2)CCCCC1)c1cccc([N+](=O)[O-])c1 | inactive: 7.16%
CCCOc1ccc(C(=O)NCC2(N(C)C)CCCCC2)cc1OC | inactive: -2.04%
O=C(NCC1(N2CCCCC2)CCCCC1)c1cncc(Br)c1 | inactive: -7.73%
CN1CCC(Nc2cccc(F)c2)CC1 | inactive: 24.6%
COc1cc(OC)c(C(=O)NCC2(N(C)C)CCCCC2)cc1OC | inactive: -9.22%
O=C(NCC1(N2CCOCC2)CCCCC1)c1cc(F)c(F)cc1Cl | inactive: -7.02%
COc1ccc(CN(CCCl)CCCl)cc1Cl | inactive: 69.6%
